Antibody variant affinities, Ab-14 light chain, assay 1

All variants were tested on one target, the spike HR2 peptide PDVDLGDISGINAS (SARS-CoV-2).

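Phage display of a naive human antibody library on the peptide gave the parent. Variants in AAYL50 differ from the parent at up to three CDR positions; double and triple changes were sampled at random. The assay is AlphaSeq: two haploid yeast populations carry antibody and antigen on their surface. Pairs that bind mate more often; barcode pairs of the diploids are counted by sequencing. Each replicate has its own calibration line, from reference interactions of the BCL2 family. There are three technical replicates.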

Ab-14 is the parent antibody, in scFv form: VH, then a (GGGGS)3 linker, then VL. The heavy chain is unchanged in all variants.
VH: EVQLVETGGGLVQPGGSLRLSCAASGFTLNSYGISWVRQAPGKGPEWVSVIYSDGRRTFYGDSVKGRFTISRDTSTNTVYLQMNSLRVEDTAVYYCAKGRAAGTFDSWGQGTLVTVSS
VL: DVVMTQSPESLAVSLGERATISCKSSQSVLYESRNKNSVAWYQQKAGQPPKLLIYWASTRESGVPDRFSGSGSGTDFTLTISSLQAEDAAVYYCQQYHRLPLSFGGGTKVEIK

Substitutions are numbered in sequence along the VL above, starting at 1 (not Kabat). Values are log10 of the apparent Kd in nM; lower means stronger binding. A mean of the replicates is given; it leaves out those without a signal. A pair that was not seen in any replicate is written "nd"; this usually means weak binding, but a binder can also be missed. In this assay the parent's reference entry averaged 0.65; its copy inside this library read 1.68. Nonspecific signal, from three strains lacking the peptide, appeared in 18% of pairings of library AAYL50, centred on 4.19 (5% of these signals below 2.99); values are not corrected for it.

For A40T S62W Q95L, the assay gave 4.83 (1 of 3 replicates).
For K36S N37I S38Y, the assay gave 3.47 (3 of 3 replicates).
For Y31V Q96M S103Y, the assay gave 3.10 (3 of 3 replicates).
For Q27A R34C Q96D, the assay gave nd (0 of 3 replicates).
For V39R R60D Q95Y, the assay gave 2.69 (1 of 3 replicates).
For S33L L100C P101S, the assay gave 3.56 (2 of 3 replicates).
For E32V S33W E61W, the assay gave 3.55 (1 of 3 replicates).
For V29G R60K R99L, the assay gave 3.01 (3 of 3 replicates).
For V39L Y97R, the assay gave 3.35 (3 of 3 replicates).
For Q95K Y97N L102I, the assay gave 4.54 (2 of 3 replicates).
For S26M S62F R99W, the assay gave 3.18 (3 of 3 replicates).
For Y31Q R60E, the assay gave 2.10 (3 of 3 replicates).
For K36N W56Q Q95T, the assay gave 5.55 (1 of 3 replicates).
For N37L W56N L100F, the assay gave 1.56 (3 of 3 replicates).
For W56A Q96T R99Q, the assay gave -0.10 (3 of 3 replicates).
For K36C S58I S103V, the assay gave 2.09 (3 of 3 replicates).
For N35G T59Y Q96T, the assay gave 1.83 (3 of 3 replicates).

Second part, the sequence after the result:

1.85 (3 of 3 replicates): N35K T59C R99L.
1.20 (3 of 3 replicates): L30Q E61T.
4.60 (1 of 3 replicates): S38K A57F P101S.
2.99 (1 of 3 replicates): K24G S38H Q95H.
nd (0 of 3 replicates): E32G P101Y S103R.
4.05 (1 of 3 replicates): S26D A40W R60H.
1.31 (3 of 3 replicates): L30R Y31S R99Q.
4.97 (2 of 3 replicates): S28Q W56S L102H.
1.90 (3 of 3 replicates): L30Y T59H S62P.
1.93 (3 of 3 replicates): R34I S58R E61W.
4.75 (2 of 3 replicates): L30F V39H Q95Y.
4.66 (3 of 3 replicates): K24D E32Y N37L.
nd (0 of 3 replicates): S25E E61R Q95N.
nd (0 of 3 replicates): S25Q Y31R V39G.
2.23 (3 of 3 replicates): L30V W56R L100F.
2.82 (2 of 3 replicates): N35G A57C T59I.
nd (0 of 3 replicates): R34Y R99N L102N.

The closing 5 entries, repeated:

Variant S25E E61R Q95N showed nd (0 of 3 replicates).
Variant S25Q Y31R V39G showed nd (0 of 3 replicates).
Variant L30V W56R L100F showed 2.23 (3 of 3 replicates).
Variant N35G A57C T59I showed 2.82 (2 of 3 replicates).
Variant R34Y R99N L102N showed nd (0 of 3 replicates).

Source: Engelhart et al. 2022 (doi:10.1038/s41597-022-01779-4), MIT Lincoln Laboratory and A-Alpha Bio; data file from the FLAb repository.